From PubChem BioAssay AID588664 (The Scripps Research Institute Molecular Screening Center, 2011)
The list shows a part of the results, in another mix than the full data. Active and inactive are the calls of the source. No stated cut-off is given here; in the data, active means inhibition above about 5% (passing the limit was not always enough); inactive means the rest.

Amino acid sequences for entries named in this document (tags omitted). A change or cut given only in a name is not applied to a line headed by its entry.
UniProt P00519, whole entry, looked up: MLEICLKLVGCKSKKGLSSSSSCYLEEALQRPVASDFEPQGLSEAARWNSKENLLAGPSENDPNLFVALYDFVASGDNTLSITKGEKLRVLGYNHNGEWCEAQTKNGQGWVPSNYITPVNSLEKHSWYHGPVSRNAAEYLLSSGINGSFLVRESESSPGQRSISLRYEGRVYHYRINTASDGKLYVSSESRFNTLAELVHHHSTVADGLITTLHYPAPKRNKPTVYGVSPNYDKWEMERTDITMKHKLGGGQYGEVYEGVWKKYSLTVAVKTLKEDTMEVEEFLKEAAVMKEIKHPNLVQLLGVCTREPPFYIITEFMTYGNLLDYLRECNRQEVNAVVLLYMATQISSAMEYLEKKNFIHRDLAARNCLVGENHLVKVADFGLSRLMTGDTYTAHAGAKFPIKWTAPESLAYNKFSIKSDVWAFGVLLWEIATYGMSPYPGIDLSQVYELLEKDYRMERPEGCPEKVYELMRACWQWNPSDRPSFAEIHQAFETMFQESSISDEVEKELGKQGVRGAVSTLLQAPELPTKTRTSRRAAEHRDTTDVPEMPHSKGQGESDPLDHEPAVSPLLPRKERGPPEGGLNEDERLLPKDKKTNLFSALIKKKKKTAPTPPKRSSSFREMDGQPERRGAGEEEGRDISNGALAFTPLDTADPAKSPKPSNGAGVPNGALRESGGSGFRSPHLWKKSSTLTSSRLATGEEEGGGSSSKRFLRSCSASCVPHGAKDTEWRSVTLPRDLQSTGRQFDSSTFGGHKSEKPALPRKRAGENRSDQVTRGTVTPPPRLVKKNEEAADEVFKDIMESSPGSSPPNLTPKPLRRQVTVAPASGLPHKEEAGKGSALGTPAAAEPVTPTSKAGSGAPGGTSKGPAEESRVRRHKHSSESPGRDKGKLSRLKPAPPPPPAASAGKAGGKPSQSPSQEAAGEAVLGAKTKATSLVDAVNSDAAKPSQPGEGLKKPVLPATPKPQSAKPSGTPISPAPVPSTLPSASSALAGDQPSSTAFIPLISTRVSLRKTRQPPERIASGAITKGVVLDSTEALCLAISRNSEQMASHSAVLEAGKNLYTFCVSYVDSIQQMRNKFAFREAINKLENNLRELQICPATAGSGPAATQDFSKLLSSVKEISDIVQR
UniProt Q13671: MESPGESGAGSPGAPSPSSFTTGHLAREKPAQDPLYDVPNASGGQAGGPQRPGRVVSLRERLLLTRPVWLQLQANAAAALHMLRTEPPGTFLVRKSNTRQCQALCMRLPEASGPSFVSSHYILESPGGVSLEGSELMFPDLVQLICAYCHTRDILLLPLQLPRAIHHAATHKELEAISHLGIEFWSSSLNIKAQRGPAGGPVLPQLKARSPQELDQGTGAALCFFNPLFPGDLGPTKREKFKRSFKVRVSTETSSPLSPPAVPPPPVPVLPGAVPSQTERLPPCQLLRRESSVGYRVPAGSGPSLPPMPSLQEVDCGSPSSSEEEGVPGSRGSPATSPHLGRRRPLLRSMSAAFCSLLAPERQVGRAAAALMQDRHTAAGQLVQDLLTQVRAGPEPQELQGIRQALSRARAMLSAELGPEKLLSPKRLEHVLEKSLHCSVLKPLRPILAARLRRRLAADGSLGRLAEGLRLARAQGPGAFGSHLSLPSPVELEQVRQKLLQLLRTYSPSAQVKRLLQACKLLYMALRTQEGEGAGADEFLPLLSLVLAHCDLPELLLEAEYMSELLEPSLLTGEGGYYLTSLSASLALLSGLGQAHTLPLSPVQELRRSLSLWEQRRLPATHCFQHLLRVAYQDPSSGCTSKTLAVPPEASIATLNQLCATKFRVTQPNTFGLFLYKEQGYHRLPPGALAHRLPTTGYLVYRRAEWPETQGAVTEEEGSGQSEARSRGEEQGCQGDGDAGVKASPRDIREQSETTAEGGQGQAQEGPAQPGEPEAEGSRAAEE

Each compound was assayed against Tyrosine-protein kinase ABL1 (Homo sapiens) + Ras and Rab interactor 1 (Homo sapiens) (UniProt P00519+Q13671) (assay: inhibitors of Rin1-Abl protein binding, primary screen, biochemical, TR-FRET (AID 588664)). Conditions: at 7.35 µM, stronger effect = higher value.

| SMILES | inhibition |
| --- | --- |
| N#C/C(=C\c1ccc(N(CCBr)CCBr)cc1)C(N)=O | inactive: -3.31% |
| CC(=O)c1ccc(N2CC2c2ccncc2)cc1 (stereo unspecified) | inactive: 1.19% |
| CC(C)(C)C(=O)NC(Sc1ccccc1)C(Cl)(Cl)Cl (stereo unspecified) | inactive: 1.21% |
| CCc1cc(O)c([N+](=O)[O-])c(C)c1[N+](=O)[O-] | inactive: -0.9% |
| CCOc1ccc(C2=NCC(CBr)S2)cc1 (stereo unspecified) | inactive: 1.62% |
| O=P1(Nc2nc3ccc(Cl)cc3s2)COc2ccccc2O1 (stereo unspecified) | inactive: 1.61% |
| c1nnnn1CCn1cnnn1 | inactive: 2.06% |
| CC(C)C(=O)NC(Sc1ccccc1)C(Cl)(Cl)Cl (stereo unspecified) | inactive: -5.67% |
| O=P(Nc1nccs1)(c1ccccc1)c1ccccc1 | inactive: 0.37% |
| O=C(OC1CN2CCC1CC2)c1cccc(Cl)c1 (stereo unspecified) | inactive: 1.11% |
| Nc1ccc([As](=O)(O)c2ccc([N+](=O)[O-])cc2)cc1 | inactive: -2.57% |
| C(Cc1nn[nH]n1)Cc1nn[nH]n1 | inactive: -0.27% |
| O=[As](O)(c1ccccc1)c1ccc(O)cc1 | inactive: 1.86% |
| O=[N+]([O-])c1ccc(O)c(/C=N/Nc2ccc([N+](=O)[O-])cc2[N+](=O)[O-])c1 | inactive: -0.97% |
| CC(=O)NC(SC(=S)N(C)C)C(Cl)(Cl)Cl (stereo unspecified) | inactive: -3.47% |
| O=[N+]([O-])c1ncn(CCn2cnc([N+](=O)[O-])n2)n1 | inactive: -4.18% |
| C[C@H]1OP(=O)(Oc2ccccc2)[C@H](O)[C@H](O)[C@H]1N=[N+]=[N-] (stereo partly specified) | inactive: 2.3% |
| O=P(Nc1nc2ccccc2s1)(c1ccccc1)c1ccccc1 | inactive: -0.1% |
| O=P(Nc1ccccn1)(c1ccc(Br)cc1)c1ccc(Br)cc1 | inactive: 0.97% |

| SMILES | inhibition |
| --- | --- |
| CN(C)C1(CNC(=O)c2ccc(Cl)c(S(N)(=O)=O)c2)CCCCC1 | inactive: -1.37% |
| Nc1ccc(CCCCOc2ccccc2)cc1 | inactive: 4% |
| COc1ccc(N)c([N+](=O)[O-])c1[N+](=O)[O-] | inactive: -8.08% |
| Nc1cccc([As](=O)(O)c2ccccc2)c1 | inactive: -1.18% |
| O=P1(Nc2ccc(Br)cn2)COc2ccccc2OC1 | inactive: -5.09% |
| NS(=O)(=O)c1cccc(NC(=O)COC(=O)C(O)(c2ccccc2)c2ccccc2)c1 | inactive: 4.13% |
| Cc1ccc(OCC(=O)OC2CN3CCC2CC3)cc1 (stereo unspecified) | inactive: 0.29% |
| O=[As](O)(c1cccs1)c1cccs1 | inactive: 0.03% |
| Cc1ccc(S(=O)(=O)N(CCCN)CCCc2c(C)nc(N)[nH]c2=O)cc1 | inactive: 1.69% |
| O=P1(Nc2ncccn2)COc2ccccc2OC1 | inactive: 3.05% |
| CN(C)C1(CNC(=O)c2ccc(S(C)(=O)=O)cc2)CCCCC1 | inactive: -3.14% |
| CCCC1OP(=O)(Nc2ccccc2)OCC1CC (stereo unspecified) | inactive: 4.46% |
| O=C(/C=C/c1ccccc1)OC1CN2CCC1CC2 (stereo unspecified) | inactive: 2.59% |
| CC1CCC(C(C)C)C(OP(=O)(Nc2ccccn2)c2ccccc2)C1 (stereo unspecified) | inactive: 0.82% |
| Cc1ccc(C(=O)OC2CN3CCC2CC3)cc1 (stereo unspecified) | inactive: 2.94% |
| Cc1nn(-c2ccccc2)c2c1P(=O)(N1CCOCC1)N(C)C(c1ccccc1)=N2 (stereo unspecified) | inactive: -0.63% |
| CC(C)/C=N\N=C(\N)N[N+](=O)[O-] | inactive: -1.63% |
| CN(C(=O)Cc1ccc(Cl)c(Cl)c1)[C@@H]1CCCC[C@H]1N1CCCC1 | inactive: -2.14% |
| CC1(CBr)Cn2c(nc3ccccc3c2=O)S1 (stereo unspecified) | inactive: 2.49% |

| SMILES | inhibition |
| --- | --- |
| COc1ccccc1CNC(=O)COC(=O)C(O)(c1ccccc1)c1ccccc1 | inactive: 3.39% |
| CC(C)(C)C(=O)NC(Sc1ncccn1)C(Cl)(Cl)Cl (stereo unspecified) | inactive: -0.74% |
| O=P1(N(CCCl)CCCl)NCCC(C(F)(F)F)O1 (stereo unspecified) | inactive: 1.59% |
| Clc1n[nH]nc1-c1nn[nH][15n]1 | inactive: -0.73% |
| CCOP(=O)(NC(=NC(C)c1ccccc1)NC(C)c1ccccc1)OCC (stereo unspecified) | inactive: 3.69% |
| O=P1(Nc2ccccn2)COc2ccccc2OC1 | inactive: 1.44% |
| CCC1=CC2Cc3nc4ccc(Cl)cc4c(N)c3C(C1)C2 (stereo unspecified) | inactive: -2.37% |
| CN(CCCl)Cc1cc(Cl)c(NC2=NCCN2)c(Cl)c1 | inactive: -0.3% |
| CCOP(=O)(Nc1ccc(C)cn1)OCC | inactive: 0.7% |
| CCOP(=O)(Nc1cccc2ccccc12)OCC | inactive: -1.36% |
| COc1cc(C2NCCC3(OCCO3)C2(C)C)cc(OC)c1OC (stereo unspecified) | inactive: 3.94% |
| Cc1ccc(NCCc2c([N+](=O)[O-])cc([N+](=O)[O-])cc2[N+](=O)[O-])cc1 | inactive: -5.46% |
| Nc1cccc2c([As](=O)(O)O)cccc12 | inactive: 0.55% |
| CCCOP(=S)(Nc1nc(N)cc(=O)[nH]1)OCCC | inactive: -1.71% |
| O=[As](O)(c1cccc(O)c1)c1cccc(O)c1 | inactive: 1.89% |
| Cc1cccc(OCC(=O)OC2CN3CCC2CC3)c1 (stereo unspecified) | inactive: -5.48% |
| O=C(OC1CN2CCC1CC2)c1ccc(Cl)cc1 (stereo unspecified) | inactive: 3.24% |
| CS(=O)(=O)c1ccc(Cl)c(NC(=O)COC(=O)C(O)(c2ccccc2)c2ccccc2)c1 | inactive: -0.28% |
